Test results published in PMC9933483, “Tail-Approach-Based Design and Synthesis of Coumarin-Monoterpenes as Carbonic Anhydrase Inhibitors and Anticancer Agents” (ACS Omega, 2023).

Protein sequences, listed by entry. Tags and fused reporters are not part of them. Residues count along the entry.
UniProt O43570, 25-354: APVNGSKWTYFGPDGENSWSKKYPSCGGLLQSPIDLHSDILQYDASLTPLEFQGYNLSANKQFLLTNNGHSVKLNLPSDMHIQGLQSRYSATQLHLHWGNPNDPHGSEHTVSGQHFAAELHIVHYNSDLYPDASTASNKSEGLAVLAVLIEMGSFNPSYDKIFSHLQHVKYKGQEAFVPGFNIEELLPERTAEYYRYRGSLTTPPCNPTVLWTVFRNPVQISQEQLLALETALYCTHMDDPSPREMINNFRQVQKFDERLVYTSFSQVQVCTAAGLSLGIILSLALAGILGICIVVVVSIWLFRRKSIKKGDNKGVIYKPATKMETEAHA

Target: hCA XII (Homo sapiens, UniProt O43570)
Test: CA inhibition, stopped-flow technique
Assay type: biochemical
Details: mean from 3 assays, errors ±5–10%

| SMILES | Ki |
| --- | --- |
| Cc1ccc(C(C)C)c(OCc2cn(CCCCCCCCCOc3ccc4ccc(=O)oc4c3)nn2)c1 [Compound 17, 7-((9-(4-((2-Isopropyl-5-methylphenoxy)methyl)-1H-1,2,3-triazol-1-yl)nonyl)oxy)-2H-chromen-2-one] | 29.5 nM |
| Cc1ccc(C(C)C)c(OCc2cn(CCCCCCCCCCOc3ccc4ccc(=O)oc4c3)nn2)c1 [Compound 18, 7-((10-(4-((2-Isopropyl-5-methylphenoxy)methyl)-1H-1,2,3-triazol-1-yl)decyl)oxy)-2H-chromen-2-one] | 27.4 nM |
| Cc1ccc(C(C)C)c(OCc2cn(CCCCCCCCCCCCOc3ccc4ccc(=O)oc4c3)nn2)c1 [Compound 19, 7-((12-(4-((2-Isopropyl-5-methylphenoxy)methyl)-1H-1,2,3-triazol-1-yl)dodecyl)oxy)-2H-chromen-2-one] | 82.3 nM |
| Cc1ccc(C(C)C)cc1OCc1cn(CCCCCCOc2ccc3ccc(=O)oc3c2)nn1 [Compound 23, 7-((6-(4-((5-Isopropyl-2-methylphenoxy)methyl)-1H-1,2,3-triazol-1-yl)hexyl)oxy)-2H-chromen-2-one] | 295 nM |
| Cc1ccc(C(C)C)cc1OCc1cn(CCCCCCCOc2ccc3ccc(=O)oc3c2)nn1 [Compound 24, 7-((7-(4-((5-Isopropyl-2-methylphenoxy)methyl)-1H-1,2,3-triazol-1-yl)heptyl)oxy)-2H-chromen-2-one] | 73.1 nM |
| Cc1ccc(C(C)C)cc1OCc1cn(CCCCCCCCCOc2ccc3ccc(=O)oc3c2)nn1 [Compound 25, 7-((9-(4-((5-Isopropyl-2-methylphenoxy)methyl)-1H-1,2,3-triazol-1-yl)nonyl)oxy)-2H-chromen-2-one] | 43.3 nM |
| Cc1ccc(C(C)C)cc1OCc1cn(CCCCCCCCCCOc2ccc3ccc(=O)oc3c2)nn1 [Compound 26, 7-((10-(4-((5-Isopropyl-2-methylphenoxy)methyl)-1H-1,2,3-triazol-1-yl)decyl)oxy)-2H-chromen-2-one] | 40.4 nM |
| Cc1ccc(C(C)C)cc1OCc1cn(CCCCCCCCCCCCOc2ccc3ccc(=O)oc3c2)nn1 [Compound 27, 7-((12-(4-((5-Isopropyl-2-methylphenoxy)methyl)-1H-1,2,3-triazol-1-yl)dodecyl)oxy)-2H-chromen-2-one] | 40.4 nM |
| C=CCc1ccc(OCc2cn(CCOc3ccc4ccc(=O)oc4c3)nn2)c(OC)c1 [Compound 28, 7-(2-(4-((4-Allyl-2-methoxyphenoxy)methyl)-1H-1,2,3-triazol-1-yl)ethoxy)-2H-chromen-2-one] | 73.2 nM |
| C=CCc1ccc(OCc2cn(CCCCCCCCCOc3ccc4ccc(=O)oc4c3)nn2)c(OC)c1 [Compound 33, 7-((9-(4-((4-Allyl-2-methoxyphenoxy)methyl)-1H-1,2,3-triazol-1-yl)nonyl)oxy)-2H-chromen-2-one] | 294 nM |
| C=CCc1ccc(OCc2cn(CCCCCCCCCCOc3ccc4ccc(=O)oc4c3)nn2)c(OC)c1 [Compound 34, 7-((10-(4-((4-Allyl-2-methoxyphenoxy)methyl)-1H-1,2,3-triazol-1-yl)decyl)oxy)-2H-chromen-2-one] | 204 nM |
| C=CCc1ccc(OCc2cn(CCCCCCCCCCCCOc3ccc4ccc(=O)oc4c3)nn2)c(OC)c1 [Compound 35, 7-((12-(4-((4-Allyl-2-methoxyphenoxy)methyl)-1H-1,2,3-triazol-1-yl)dodecyl)oxy)-2H-chromen-2-one] | 284 nM |
| CC1CCC(C(C)C)C(OCc2cn(CCCOc3ccc4ccc(=O)oc4c3)nn2)C1 (centres unmarked) [Compound 37, 7-(3-(4-(((2-Isopropyl-5-methylcyclohexyl)oxy)methyl)-1H-1,2,3-triazol-1-yl)propoxy)-2H-chromen-2-one] | 411 nM |
| CC1CCC(C(C)C)C(OCc2cn(CCCCOc3ccc4ccc(=O)oc4c3)nn2)C1 (centres unmarked) [Compound 38, 7-(4-(4-(((2-Isopropyl-5-methylcyclohexyl)oxy)methyl)-1H-1,2,3-triazol-1-yl)butoxy)-2H-chromen-2-one] | 28.8 nM |
| CC1CCC(C(C)C)C(OCc2cn(CCCCCCCCCOc3ccc4ccc(=O)oc4c3)nn2)C1 (centres unmarked) [Compound 41, 7-((9-(4-(((2-Isopropyl-5-methylcyclohexyl)oxy)methyl)-1H-1,2,3-triazol-1-yl)nonyl)oxy)-2H-chromen-2-one] | 22.3 nM |
| CC1CCC(C(C)C)C(OCc2cn(CCCCCCCCCCOc3ccc4ccc(=O)oc4c3)nn2)C1 (centres unmarked) [Compound 42, 7-((10-(4-(((2-Isopropyl-5-methylcyclohexyl)oxy)methyl)-1H-1,2,3-triazol-1-yl)decyl)oxy)-2H-chromen-2-one] | 22.6 nM |
| CC1CCC(C(C)C)C(OCc2cn(CCCCCCCCCCCCOc3ccc4ccc(=O)oc4c3)nn2)C1 (centres unmarked) [Compound 43, 7-((12-(4-(((2-Isopropyl-5-methylcyclohexyl)oxy)methyl)-1H-1,2,3-triazol-1-yl)dodecyl)oxy)-2H-chromen-2-one] | 42.2 nM |
| Cc1ccc(C(C)C)c(OCCCOc2ccc3ccc(=O)oc3c2)c1 [Compound 45, 7-(3-(2-Isopropyl-5-methylphenoxy)propoxy)-2H-chromen-2-one] | 8.1 nM |
| Cc1ccc(C(C)C)c(OCCCCOc2ccc3ccc(=O)oc3c2)c1 [Compound 46, 7-(4-(2-Isopropyl-5-methylphenoxy)butoxy)-2H-chromen-2-one] | 8.5 nM |
| C=CCc1ccc(OCCCCOc2ccc3ccc(=O)oc3c2)c(OC)c1 [Compound 62, 7-(4-(4-Allyl-2-methoxyphenoxy)butoxy)-2H-chromen-2-one] | 6.7 nM |

Other lines, results leading:

| Ki | SMILES |
| --- | --- |
| 7.7 nM | Cc1ccc(C(C)C)c(OCCCCCCOc2ccc3ccc(=O)oc3c2)c1 [Compound 47, 7-((6-(2-Isopropyl-5-methylphenoxy)hexyl)oxy)-2H-chromen-2-one] |
| 9.4 nM | Cc1ccc(C(C)C)c(OCCCCCCCOc2ccc3ccc(=O)oc3c2)c1 [Compound 48, 7-((7-(2-Isopropyl-5-methylphenoxy)heptyl)oxy)-2H-chromen-2-one] |
| 7.6 nM | Cc1ccc(C(C)C)c(OCCCCCCCCCOc2ccc3ccc(=O)oc3c2)c1 [Compound 49, 7-((9-(2-Isopropyl-5-methylphenoxy)nonyl)oxy)-2H-chromen-2-one] |
| 8.5 nM | Cc1ccc(C(C)C)c(OCCCCCCCCCCCCOc2ccc3ccc(=O)oc3c2)c1 [Compound 51, 7-((12-(2-Isopropyl-5-methylphenoxy)dodecyl)oxy)-2H-chromen-2-one] |
| 8.1 nM | Cc1ccc(C(C)C)cc1OCCCOc1ccc2ccc(=O)oc2c1 [Compound 53, 7-(3-(5-Isopropyl-2-methylphenoxy)propoxy)-2H-chromen-2-one] |
| 7.7 nM | Cc1ccc(C(C)C)cc1OCCCCCCOc1ccc2ccc(=O)oc2c1 [Compound 55, 7-((6-(5-Isopropyl-2-methylphenoxy)hexyl)oxy)-2H-chromen-2-one] |
| 8.3 nM | C=CCc1ccc(OCCOc2ccc3ccc(=O)oc3c2)c(OC)c1 [Compound 60, 7-(2-(4-Allyl-2-methoxyphenoxy)ethoxy)-2H-chromen-2-one] |
| 56.8 nM | C=CCc1ccc(OCCCCCCCCCCOc2ccc3ccc(=O)oc3c2)c(OC)c1 [Compound 66, 7-((10-(4-Allyl-2-methoxyphenoxy)decyl)oxy)-2H-chromen-2-one] |
| 9.1 nM | CC1CCC(C(C)C)C(OCCCOc2ccc3ccc(=O)oc3c2)C1 (centres unmarked) [Compound 69, 7-(3-((2-Isopropyl-5-methylcyclohexyl)oxy)propoxy)-2H-chromen-2-one] |
